# According to patent US20050250700A1:
# Amino acid sequences for entries named in this document (tags omitted). Residues count along the entry.
# KDR (VEGFR-2), full-length receptor on cells (human), P35968, UniProt P35968, 20-1356: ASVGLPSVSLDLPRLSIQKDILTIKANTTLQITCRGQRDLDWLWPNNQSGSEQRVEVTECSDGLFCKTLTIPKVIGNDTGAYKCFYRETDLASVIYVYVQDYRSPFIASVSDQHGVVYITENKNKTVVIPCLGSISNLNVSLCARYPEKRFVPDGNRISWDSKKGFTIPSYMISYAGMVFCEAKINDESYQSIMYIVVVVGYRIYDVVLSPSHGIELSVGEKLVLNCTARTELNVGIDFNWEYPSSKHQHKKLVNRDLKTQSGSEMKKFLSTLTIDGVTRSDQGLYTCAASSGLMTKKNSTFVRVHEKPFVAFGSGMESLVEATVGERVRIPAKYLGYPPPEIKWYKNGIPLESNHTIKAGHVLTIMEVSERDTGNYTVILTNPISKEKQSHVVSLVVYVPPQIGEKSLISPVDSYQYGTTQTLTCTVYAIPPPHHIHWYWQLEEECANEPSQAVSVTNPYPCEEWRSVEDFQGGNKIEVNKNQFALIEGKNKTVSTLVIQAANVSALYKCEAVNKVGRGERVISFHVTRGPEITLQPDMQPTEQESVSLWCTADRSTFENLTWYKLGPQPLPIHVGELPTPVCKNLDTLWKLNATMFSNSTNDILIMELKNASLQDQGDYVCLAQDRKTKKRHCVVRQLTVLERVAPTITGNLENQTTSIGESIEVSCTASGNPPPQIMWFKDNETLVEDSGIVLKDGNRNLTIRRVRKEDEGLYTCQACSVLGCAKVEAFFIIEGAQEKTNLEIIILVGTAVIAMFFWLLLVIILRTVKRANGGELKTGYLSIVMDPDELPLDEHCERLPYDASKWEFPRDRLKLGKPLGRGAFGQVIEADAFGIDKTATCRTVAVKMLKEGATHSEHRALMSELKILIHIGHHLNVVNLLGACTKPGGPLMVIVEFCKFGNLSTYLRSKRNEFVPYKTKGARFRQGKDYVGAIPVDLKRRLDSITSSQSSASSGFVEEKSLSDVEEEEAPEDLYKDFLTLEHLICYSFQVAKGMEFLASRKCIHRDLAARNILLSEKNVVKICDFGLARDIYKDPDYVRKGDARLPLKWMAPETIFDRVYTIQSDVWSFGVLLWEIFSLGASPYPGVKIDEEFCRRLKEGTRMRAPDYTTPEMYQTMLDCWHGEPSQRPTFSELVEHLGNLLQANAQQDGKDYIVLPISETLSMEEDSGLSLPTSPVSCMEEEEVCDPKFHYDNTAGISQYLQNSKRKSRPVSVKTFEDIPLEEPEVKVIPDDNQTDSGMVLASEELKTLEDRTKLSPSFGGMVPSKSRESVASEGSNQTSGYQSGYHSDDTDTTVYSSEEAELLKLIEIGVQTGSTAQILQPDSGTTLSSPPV
# Target: KDR (VEGFR-2), full-length receptor on cells (human), P35968
# Details: remark: other sources report otherwise
binder,measurement,value
AGPKWCEEDWYYCMITGTGGGK (here or on the partner: N-acetyl; disulfide; C-terminal Lys(Biotin-JJ)-NH2) [tetrameric complex of biotinylated SEQ ID NO:264 (JJ spacer) with neutravidin-HRP],Kd,14.9 nM
